In PubChem BioAssay AID743266 (National Center for Advancing Translational Sciences (NCATS), 2014):
This is a selection; strong and weak results do not stand in their true shares. Calls of active or inactive are those of the source. The call rests on the fitted dose curve; in most records, active means well fitted activation curve with a large enough effect; inconclusive means small, poorly fitted or top-dose-only effect, or another doubt; inactive means no such curve, though single readings can be large or run the other way.

By UniProt entry, the sequences of proteins in these tests, tags left out.
UniProt Q03431, whole entry: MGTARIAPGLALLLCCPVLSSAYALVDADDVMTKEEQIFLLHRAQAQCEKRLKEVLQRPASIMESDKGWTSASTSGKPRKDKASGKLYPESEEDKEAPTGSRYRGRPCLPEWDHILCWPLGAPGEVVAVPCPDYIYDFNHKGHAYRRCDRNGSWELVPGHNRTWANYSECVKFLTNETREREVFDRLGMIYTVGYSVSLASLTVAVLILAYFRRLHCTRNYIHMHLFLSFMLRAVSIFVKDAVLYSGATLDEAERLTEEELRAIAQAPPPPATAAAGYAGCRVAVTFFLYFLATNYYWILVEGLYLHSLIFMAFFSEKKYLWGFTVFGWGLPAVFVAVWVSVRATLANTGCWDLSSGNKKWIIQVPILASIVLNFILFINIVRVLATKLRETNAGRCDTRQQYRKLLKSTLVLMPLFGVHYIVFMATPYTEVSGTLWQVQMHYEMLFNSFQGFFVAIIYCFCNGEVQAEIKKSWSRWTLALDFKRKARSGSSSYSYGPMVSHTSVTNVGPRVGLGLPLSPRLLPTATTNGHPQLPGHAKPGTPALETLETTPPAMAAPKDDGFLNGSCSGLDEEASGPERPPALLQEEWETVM

target: Parathyroid hormone/parathyroid hormone-related peptide receptor (Homo sapiens) (UniProt Q03431); experiment: qHTS for PTHR1 Agonists: Primary Screen; conditions: HEK293 GP2 PTHR1 cells, GloSensor cAMP luminescence, 1 h; activation: at 115 µM (top of the series) unless noted; further: nearly all actives have a fitted effect of over 55% in size

Structure (SMILES) | activation | outcome
O=[N+]([O-])c1cc([N+](=O)[O-])c(Nc2cccnc2)c([N+](=O)[O-])c1 | inactive | –
Cc1cccc(C)c1OP(C)(N)=O (configuration not stated) | inactive: 11.2% | –
CC(C)(C)c1ccc(OP(C)(=O)Nc2ccc(SC(F)(F)F)cc2)cc1 (configuration not stated) | inactive: -11.4% | –
O=[N+]([O-])c1ccc2c(c1)C=Nc1ccccc1O2 | inactive: -25.1% | –
CCOC(=O)c1ccc(NP(C)(=O)Oc2ccccc2)cc1 (configuration not stated) | inactive | –
Cc1ccc(NP(C)(=O)Oc2ccccc2)c(C)c1 (configuration not stated) | inactive: -34.3% | –
COc1ccccc1OP(C)(=O)Nc1ccc(C)cc1 (configuration not stated) | – | inactive [at 57.5 µM]
COc1ccc(OP(C)(=O)Nc2cccc(F)c2)cc1 (configuration not stated) | inactive | –
COc1ccccc1OP(C)(=O)Nc1cc(Cl)ccc1C (configuration not stated) | inactive: -14% | –
Cc1cc(C)cc(OP(C)(N)=O)c1 (configuration not stated) | inactive | –
CCN(CC)CCCOC(=O)C(O)(c1ccccc1)c1ccccc1 | inactive: -15.7% | –
COc1ccccc1-c1ccccn1.O=[N+]([O-])c1cc([N+](=O)[O-])c(O)c([N+](=O)[O-])c1 | inactive | –
CP(=O)(Oc1ccccc1)OC(c1ccccc1)C(F)(F)F (configuration not stated) | inactive | –
Cc1cccc(C)c1OP(C)(=O)Nc1ccc(SC(F)(F)F)cc1 (configuration not stated) | inactive: -7.46% | –
CP(=O)(Nc1ccc(SC(F)(F)F)cc1)Oc1ccc(Cl)cc1 (configuration not stated) | inactive: -55.1% | –
Cc1cc(C)cc(OP(C)(=O)Nc2ccc(SC(F)(F)F)cc2)c1 (configuration not stated) | inactive: -27.4% | –
CCc1ccc(OP(C)(=O)N2CCN(c3ccc([N+](=O)[O-])cc3)CC2)cc1 (configuration not stated) | inactive: -36.8% | –
CP(=O)(NC(=O)Nc1ccccc1)Oc1ccccc1 (configuration not stated) | inactive: -8.27% [at 57.5 µM] | –
CCOP(C)(=S)SCC(=O)NC(C)C(=O)O (configuration not stated) | inactive: -13.5% | –
CCOC(=O)c1ccc(NP(C)(=O)Oc2ccc(OC)cc2)cc1 (configuration not stated) | inactive | –
O=[N+]([O-])c1cc([N+](=O)[O-])c(O)c([N+](=O)[O-])c1.c1ccc(Oc2ccncc2)cc1 | inactive | –
CP(=O)(Nc1ccccn1)Oc1ccc(Cl)cc1 (configuration not stated) | inactive: -11.5% [at 57.5 µM] | –
CP(=S)(Nn1cnnc1)Oc1ccccc1 (configuration not stated) | inactive: -3.6% | –
COc1ccccc1OP(C)(=O)Nc1ccccc1 (configuration not stated) | inactive: -15.2% | –
CP(=O)(Nc1ccccc1Br)Oc1ccccc1 (configuration not stated) | inactive | –
O=[N+]([O-])c1cc([N+](=O)[O-])c(Nc2nnnn2CCO)c([N+](=O)[O-])c1 | inactive | –
CC1=C2N=C(C=C3N=C(C(C)=C4[N-][C@@](C)([C@@H]5N=C1[C@](C)(CCC(=O)NC[C@@H](C)OP(=O)([O-])O[C@H]1[C@@H](O)[C@@H](n6cnc7cc(C)c(C)cc76)O[C@@H]1CO)[C@H]5CC(N)=O)[C@@](C)(CC(N)=O)[C@@H]4CCC(N)=O)[C@@](C)(CC(N)=O)[C@@H]3CCC(N)=O)C(C)(C)[C@@H]2CCC(N)=O.[C-]#N.[Co+3] | inactive: 13% | –
